Screening results deposited in PubChem BioAssay by Broad Institute.
S100A4 inh HTS: S100A4-myosin IIA interaction inhibition | P26447 | S100A4/TAMRA-MyoIIA peptide fluorescence polarization | inhibition, % at 10.7 µM | actives 0.14% (n = 360,000) | AID 652163;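 active = mean inhibition of at least 70% across replicates, with every replicate also reaching that level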
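incubation = readout 5 min after mixing, signal stable up to 60 min | system = S100A4 monomer protein | buffer or medium = HEPES pH 7.2 with CaCl2, KCl, NaCl, DTT, Triton | benchmarks = neutral control DMSO, positive control TFP | also added = fluorescent myosin IIA peptide, 5 nM | compound dosing = one concentration per compound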
E-sel inducer: E-selectin induction on HUVECs. P16581. HUVEC E-selectin immunofluorescence imaging; normalized: neutral wells 0, TNF-alpha wells 100. activation, % at 7.58 µM. actives 0.37% (n = 260,000). AID 686992;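 active = mean E-selectin-positive cell signal at least 10% of the positive control, reached in at least 60% of replicates, without over 20% cell loss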
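material = human umbilical vein endothelial cells (HUVEC), E-selectin induction | quantity = 3,000 cells/well | medium = EGM-2 growth medium on 0.1% gelatin-coated wells | technique = immunofluorescence imaging | read-out basis = % PE-positive cells | control set = TNF-alpha positive control, DMSO neutral control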
ARNT-TACC3 inh: ARNT/TACC3 interaction disruption; Q9Y6A5; AlphaScreen His-ARNT PAS-B/GST-TACC3 binding, luminescence; TACC3 fragment carries E629A point mutation; inhibition, % at 9.99 µM; actives 0.66% (n = 390,000);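 active = mean inhibition of replicates at least 50% and at least half of replicates each reaching 50%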;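 note: 0% = complete ARNT plus TACC3 wells and 100% = ARNT alone without TACC3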
AF4-AF9 inh: blocks AF4 peptide binding to human AF9; AlphaScreen, biotin-AF4 peptide binding to FLAG-AF9; actives 0.47% (n = 350,000); AID 651704; P42568; inhibition, % at 10 µM;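 active = every replicate reaching a set inhibition limit, whatever the replicate mean, cut at about 25% in these data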;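 note: 0% = plate neutral control median and 100% = total signal loss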
Yeast UUG start: modulators of start codon recognition fidelity in yeast; AID 602363; hit rate 0.13% among 350,000; activity score, % at 18.7 µM; S. cerevisiae UUG-firefly luciferase reporter, luminescence/redox ratio;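 active = replicate mean at a twofold rise or more, about +100% in these data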;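 note: firefly luciferase made from a UUG start codon reports start codon fidelity; reporter light over untreated wells divided by growth signal over untreated wells; some hits fall short of that in this replicate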
ERAP1 HTS inh: ERAP1 (human) enzyme inhibition; inhibition, % at 10.7 µM; recombinant ERAP1, Leu-AMC fluorescence, 60 min; Q9NZ08; actives 0.15% (n = 340,000);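 active = mean replicate inhibition of at least 30%, or all replicates individually reaching that 30% level; inactive = mean below 30% and not every replicate reaching it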;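 note: 0% = neutral control wells and 100% = L-leucinethiol positive control wells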
Starred values were filed as active, the others as inactive; . = no result. A selection: hits, their analogues and other compounds. The true share with any hit is near 1.3%.

Keys: A = S100A4 inh HTS; B = E-sel inducer; C = ARNT-TACC3 inh; D = AF4-AF9 inh; E = Yeast UUG start; F = ERAP1 HTS inh
> CC(C)(C)OC(=O)NCCC(=O)N/N=C/c1ccc2ncccc2c1
  A: -5 | B: . | C: 8 | D: -1 | E: -9 | F: 0
> COc1ccc(NC(=O)c2cccc(N3C(=O)NC4CC3(C)Oc3ccccc34)c2)cc1 (stereo not drawn)
  A: . | B: . | C: -1 | D: . | E: 4 | F: .
> CC12CC(NC(=O)N1c1cccc(C(=O)Nc3ncn[nH]3)c1)c1ccccc1O2 (stereo not drawn)
  A: . | B: . | C: 21* | D: . | E: -21 | F: .
> Cc1ccc(SCc2cc(=O)n(C)[nH]2)cc1
  A: 1 | B: 82* | C: 30 | D: -1 | E: . | F: 1
> CO[C@@H]1CN(C)C(=O)c2cc(NC(C)=O)ccc2OC[C@H](C)NC[C@H]1C
  A: -4 | B: 0 | C: -1 | D: -1 | E: . | F: 7
> C[C@@H]1CN([C@H](C)CO)C(=O)c2cc(NC(=O)Cn3cnnn3)ccc2O[C@@H]1CN(C)Cc1ccc(Oc2ccccc2)cc1
  A: -64 | B: 88* | C: 10 | D: 5 | E: 14 | F: -1
> C[C@@H]1CN([C@@H](C)CO)C(=O)c2cc(NC(=O)Cn3cnnn3)ccc2O[C@H]1CN(C)S(=O)(=O)c1ccccc1
  A: 1 | B: 10 | C: . | D: -1 | E: . | F: -3
> C[C@H]1CN([C@@H](C)CO)C(=O)c2cc(NC(=O)Cn3cnnn3)ccc2O[C@@H]1CN(C)Cc1ccccc1
  A: -3 | B: 0 | C: 3 | D: -1 | E: -7 | F: 3
> C[C@@H]1CN([C@@H](C)CO)C(=O)c2cc(NC(=O)Cn3cnnn3)ccc2O[C@@H]1CN(C)Cc1ccc(Oc2ccccc2)cc1
  A: -20 | B: 52* | C: 6 | D: 6 | E: 4 | F: 1
> C[C@@H]1CN([C@H](C)CO)C(=O)c2cc(NC(=O)Cn3cnnn3)ccc2O[C@@H]1CN(C)S(=O)(=O)c1ccccc1
  A: -14 | B: 60* | C: . | D: 1 | E: . | F: 0
> COc1ccccc1S(=O)(=O)N[C@@H]1CC[C@H](CCNC(=O)C2CCCCC2)O[C@H]1CO
  A: 16 | B: -1 | C: 12 | D: 0 | E: 11 | F: -4
> COCC#Cc1cnc2c(c1)C(=O)N([C@@H](C)CO)C[C@H](C)[C@@H](CN(C)Cc1ccccc1F)O2
  A: -17 | B: 0 | C: 5 | D: 0 | E: 5 | F: -1
> Cn1cnc(Sc2ncnc3nc[nH]c23)c1[N+](=O)[O-]
  A: -2 | B: . | C: 11 | D: -2 | E: -10 | F: 41*
> Cn1cnc([N+](=O)[O-])c1Sc1ncnc2nc[nH]c12
  A: 0 | B: . | C: 4 | D: . | E: -15 | F: 0
> CC(=O)N(C)C[C@H]1Oc2cc(C#Cc3ccc(F)cc3)ccc2S(=O)(=O)N([C@@H](C)CO)C[C@H]1C
  A: 0 | B: 0 | C: -9 | D: 0 | E: . | F: -3

An excerpt of these results, field by field.
C[C@@H]1CN([C@@H](C)CO)C(=O)c2cc(NC(=O)Cn3cnnn3)ccc2O[C@@H]1CN(C)Cc1ccc(Oc2ccccc2)cc1
  S100A4 inh HTS = -20	E-sel inducer = 52*	ARNT-TACC3 inh = 6	AF4-AF9 inh = 6	Yeast UUG start = 4	ERAP1 HTS inh = 1
C[C@@H]1CN([C@H](C)CO)C(=O)c2cc(NC(=O)Cn3cnnn3)ccc2O[C@@H]1CN(C)S(=O)(=O)c1ccccc1
  S100A4 inh HTS = -14	E-sel inducer = 60*	ARNT-TACC3 inh = .	AF4-AF9 inh = 1	Yeast UUG start = .	ERAP1 HTS inh = 0
COc1ccccc1S(=O)(=O)N[C@@H]1CC[C@H](CCNC(=O)C2CCCCC2)O[C@H]1CO
  S100A4 inh HTS = 16	E-sel inducer = -1	ARNT-TACC3 inh = 12	AF4-AF9 inh = 0	Yeast UUG start = 11	ERAP1 HTS inh = -4

The list continues.
Keys: A = S100A4 inh HTS; B = E-sel inducer; C = ARNT-TACC3 inh; D = AF4-AF9 inh; E = Yeast UUG start; F = ERAP1 HTS inh
> CC1CCC(C(C)C)C(OCC(O)C[N+]2(C)CCCCC2)C1 (stereo not drawn)
  A: 0 | B: -1 | C: 2 | D: -3 | E: -10 | F: 103*
> CC1CCC(C(C)C)C(OCC(O)CN2CCCC(C)C2)C1 (stereo not drawn)
  A: -1 | B: 2 | C: -1 | D: 0 | E: . | F: 4
> O=C(C[C@H]1C=C[C@H](NC(=O)NC2CCCCC2)[C@@H](CO)O1)NCc1ccccc1
  A: 9 | B: -1 | C: -13 | D: -1 | E: -6 | F: -2
> C[C@H](CO)N1C[C@H](C)[C@H](CN(C)Cc2ccccc2)Oc2c(NC(=O)CCCCCC(=O)Nc3ccccc3N)cccc2C1=O
  A: 108* | B: 0 | C: . | D: -3 | E: . | F: 2
> CC(C)NC(=O)N(C)C[C@H]1Oc2c(NC(=O)CCCCCC(=O)Nc3ccccc3N)cccc2C(=O)N([C@@H](C)CO)C[C@H]1C
  A: 2 | B: 40* | C: . | D: 1 | E: . | F: 5
> O=C(Nc1ccc(Cl)cc1)N1C[C@H]2[C@@H](c3ccccc31)[C@@H](CO)N2C(=O)c1ccccn1
  A: 1 | B: 1 | C: 0 | D: 0 | E: 0 | F: 0
> COc1cc(NS(=O)(=O)c2ccc(C)cc2)c2c(c1N)C(=O)c1ccccc1C2=O
  A: 4 | B: 127* | C: . | D: -1 | E: 58 | F: 1
> COC(=O)C(C(=O)OC)c1ccccc1NS(=O)(=O)c1ccc(C)cc1
  A: 1 | B: 4 | C: . | D: -2 | E: . | F: 1
> O=C(CCN1CCCCC1)NCC[C@@H]1CC[C@H](NS(=O)(=O)c2cccc(F)c2)[C@@H](CO)O1
  A: 13 | B: 0 | C: -1 | D: 0 | E: 14 | F: 0
> C[C@@H]1CCCCO[C@H](CN(C)C(=O)CCCN(C)C)[C@@H](C)CN([C@@H](C)CO)C(=O)c2cc(NC(=O)NC3CCCCC3)ccc2O1
  A: -6 | B: 0 | C: -6 | D: 3 | E: 15 | F: 0
> Oc1ccc(/C=N/NC(=S)Nc2cccnc2)c(O)c1O
  A: -9 | B: . | C: 64* | D: -20 | E: -37 | F: 2
> Fc1c(F)c(F)c(/C=N/NC(=S)Nc2cccnc2)c(F)c1F
  A: -7 | B: 3 | C: 0 | D: -3 | E: . | F: 0
> O=C(CCC(=O)Nc1ccc(F)cc1)N/N=C/c1ccc(O)cc1O
  A: 7 | B: . | C: 45 | D: -2 | E: -22 | F: -1
> Oc1ccc(C=NNC(=S)Nc2ccc(F)cc2)c(O)c1
  A: -1 | B: 1 | C: 65* | D: 10 | E: -38 | F: -4
> COCCCNC(=S)N/N=C/c1ccc(O)cc1
  A: -5 | B: . | C: . | D: -3 | E: -24 | F: .
> COCCCNC(=S)N/N=C/c1ccc(O)cc1O
  A: -4 | B: 0 | C: 84* | D: . | E: -24 | F: 2
> Oc1ccc(/C=N/NC(=S)Nc2cccnc2)c(O)c1
  A: . | B: . | C: 65* | D: . | E: . | F: .
> CN1c2ccc(-c3ccccc3)cc2[C@@H]2[C@@H](CCN2C(=O)c2ccc3c(c2)OCO3)[C@@H]1CO
  A: -18 | B: 1 | C: 5 | D: 0 | E: -11 | F: 2
> O=C(Cc1ccncc1)Nc1ccc2c(c1)[C@H]1C[C@@H](CC(=O)N3CCc4ccccc4C3)O[C@H](CO)[C@H]1O2
  A: 4 | B: 0 | C: 8 | D: 9 | E: . | F: 2
> O=S(=O)(c1ccc(F)cc1)N1CCCCN2[C@H](CO)[C@H](c3ccc(-c4ccccc4)cc3)[C@@H]2C1
  A: -2 | B: -1 | C: 7 | D: -6 | E: 11 | F: -1
> COc1ccc(NC(=O)N(C)C[C@H]2Oc3c(NS(=O)(=O)c4ccccc4)cccc3C(=O)N([C@H](C)CO)C[C@H]2C)cc1
  A: . | B: 5 | C: . | D: . | E: . | F: .
> Oc1cccc(/C=N/NC(=S)Nc2cccnc2)c1O
  A: . | B: . | C: 66* | D: . | E: . | F: .
> Cc1cccc(CN(C)C[C@@H]2OCc3cn(nn3)CCCC(=O)N([C@H](C)CO)C[C@H]2C)c1
  A: -1 | B: 0 | C: -4 | D: -2 | E: 7 | F: -2
> CNC[C@H]1Oc2cc(-c3ccccc3F)ccc2S(=O)(=O)N([C@H](C)CO)C[C@@H]1C
  A: -16 | B: 1 | C: -4 | D: 2 | E: 2 | F: -3
> COc1ccc(CN2CC3(CN(C(=O)Cc4ccccc4)C3)c3c([nH]c4cc(OC)ccc34)[C@H]2CO)cc1
  A: 4 | B: 0 | C: . | D: 5 | E: . | F: -4
> COc1ccc(CN2CC3(CN(Cc4ccccc4OC)C3)c3c([nH]c4cc(OC)ccc34)[C@H]2CO)cc1
  A: 4 | B: 0 | C: . | D: 14 | E: . | F: 0
> COc1ccc2c3c([nH]c2c1)[C@H](CO)N(Cc1cc(F)ccc1F)CC31CN(C)C1
  A: -32 | B: -1 | C: . | D: 2 | E: . | F: 40*
> COc1ccc(CN2CC3(C2)CN(Cc2ccc4c(c2)OCO4)[C@@H](CO)c2[nH]c4cc(OC)ccc4c23)cc1
  A: . | B: -1 | C: . | D: 50* | E: . | F: .
